Measured values reported in US9540391B2, “Isomannide derivatives as inhibitors of soluble epoxide hydrolase” (SANOFI, priority 2013, dated 2017).

Chains of the proteins cited; added tags and fusions are not shown.
UniProt P34913, whole entry: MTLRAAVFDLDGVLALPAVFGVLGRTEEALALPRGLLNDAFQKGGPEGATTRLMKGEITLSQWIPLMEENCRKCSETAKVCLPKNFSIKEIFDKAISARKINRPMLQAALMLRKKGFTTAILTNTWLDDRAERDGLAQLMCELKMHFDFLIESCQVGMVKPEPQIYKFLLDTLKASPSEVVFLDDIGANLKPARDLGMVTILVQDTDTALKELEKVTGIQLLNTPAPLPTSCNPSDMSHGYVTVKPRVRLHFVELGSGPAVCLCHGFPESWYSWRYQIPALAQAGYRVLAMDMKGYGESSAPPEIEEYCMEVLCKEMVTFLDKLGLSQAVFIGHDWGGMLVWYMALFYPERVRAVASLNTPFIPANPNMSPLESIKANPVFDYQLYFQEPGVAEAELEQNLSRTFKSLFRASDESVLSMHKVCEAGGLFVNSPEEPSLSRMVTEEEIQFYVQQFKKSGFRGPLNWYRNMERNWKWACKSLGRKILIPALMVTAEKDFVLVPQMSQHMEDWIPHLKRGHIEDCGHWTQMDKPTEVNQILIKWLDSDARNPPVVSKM

Target: recombinant sEH (Homo sapiens, UniProt P34913)
Assay: biochemical screening assay for inhibition of soluble epoxide hydrolase (fluorometric, Phome substrate)
Conditions: read-out: sEH IC50
Method: The ability of the compounds of the formula I to inhibit soluble epoxide hydrolase can be determined as follows:
Compounds were tested in a biochemical screening assay using recombinant sEH purified from Sf9 insect cells and an artificial substrate, (3-phenyl-oxiranyl)-acetic acid cyano-(6-methoxy-naphtalen-2-yl)-methyl ester, Phome. The biochemical assay was performed in analogy to a fluorometric method described in the literature (P. D. Jones et al., Anal. Biochem. 2005, 343, 66-75). The assay principle bases on the sEH-catalyzed hydrolysis of an artificial α-cyano-ester substrate. 0-deacetylation liberates a cyanohydrin intermediate that rapidly decomposes to the highly fluorescent 6-methoxy-2-naphtaldehyde. To discriminate sample autofluorescence, the assay was carried out as a kinetic measurement with two time points. The first measurement is performed immediately before addition of the substrate and the second measurement is done after completion of the assay. The assay format is either in 96- or in 384-well format. Details of the assay using a 96-well plate format are described below. […]
Fluorescence can be measured with any suitable detector for instance a TECAN Safire or Tecan Ultra at […]. % inhibition of recombinant sEH activity is used for calculation of corresponding IC50 values as illustrated and described in the examples. […]

N#C[C@H]1CO[C@H]2[C@@H]1OC[C@@H]2NC(=O)Nc1ccc2c(c1)OCCO2
IC50: 86 nM
